# Yeast mating assay 2: variants of the scFv Ab-91

The measurements come from Engelhart et al. 2022 (doi:10.1038/s41597-022-01779-4) through the FLAb antibody collection.

The target is the same throughout: PDVDLGDISGINAS, from the HR2 region of SARS-CoV-2 spike.

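Phage display of a naive human antibody library on the peptide gave the parent. In library AAYL51, one, two or three CDR residues were substituted; doubles and triples were drawn at random. AlphaSeq pools MATa yeast showing the antibodies with MATalpha yeast showing the peptide. The frequency of each diploid, read from paired DNA barcodes, reflects how well the two displayed proteins bind. Scores were corrected for input abundance and mapped to Kd with protein pairs of known affinity run in the same pool. Mating was done three times.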

Each scFv is VL, the linker GGGGSGGGGSGGGGS, VH, as in the parent Ab-91, and differs from it in the CDRs of the heavy chain only.
VL: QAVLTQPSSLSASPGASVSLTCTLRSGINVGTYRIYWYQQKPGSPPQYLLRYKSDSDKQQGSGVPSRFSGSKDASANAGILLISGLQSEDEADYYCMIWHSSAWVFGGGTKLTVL
VH: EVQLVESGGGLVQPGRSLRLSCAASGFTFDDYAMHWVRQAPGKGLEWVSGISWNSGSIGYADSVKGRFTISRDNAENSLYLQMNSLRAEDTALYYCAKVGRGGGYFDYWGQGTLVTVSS

Each variant is given by its three heavy chain CDRs, as the data file delimits them; those of the parent are GFTFDDYAMH, GISWNSGSIGYADSVK, VGRGGGYFDY. All variants listed here change N54 of the VH, counted from its first residue. Values are apparent Kd, the geometric mean of the replicates that gave a signal; lower means stronger binding. "not detected" marks a missing value. The strain was present, yet no cells mated with the target were sequenced in any replicate, which points to weak or no binding. Background: pairings of library AAYL51 with three empty control strains gave a value in 21% of cases (median 34 µM, 5th percentile 1.8 µM). Values in that range, when seen in few replicates, are hard to tell from nonspecific mating.

CDR-H1,CDR-H2,CDR-H3,apparent Kd,detected
GFTFDMYAMH,GISWLSGSIGYADSVK,VGRGGGYFDS,160 nM,1 of 3
GFTFDDYAMH,HISWYSGSIGYADSVK,VGRGGGYFKY,89 µM,2 of 3
GFTFDDYAMH,GISWDSGSICYATSVK,VGRGGGYFDY,not detected,0 of 3
GFTFDNYAMH,GISWKSGSIGYADSVK,VGRGGGYKDY,not detected,0 of 3
GFAFDDYAMH,GISWLSGSIGYADSVK,VGRKGGYFDY,2.7 µM,1 of 3
GFTFDDHAMH,GISWQSGSIGYADSVK,VGRGGGCFDY,not detected,0 of 3
GFTFDDVAMH,GYSWQSGSIGYADSVK,VGRGGGYFDY,not detected,0 of 3
GFTFDDYAMH,GISWCSGWIGYADSVK,VGRGGGIFDY,130 µM,1 of 3
GFTFDDYAMH,GISWPSGSIGYADSVK,VGRGGGYFDY,18 µM,2 of 3
GFTFDDYAMH,GIVWYSGSIGYADSVK,VGRGGGYFDY,not detected,0 of 3
GFTFDDYAMH,GIDWFRGSIGYADSVK,VGRGGGYFDY,not detected,0 of 3
GFTKDDYAMH,GIEWKSGSIGYADSVK,VGRGGGYFDY,not detected,0 of 3
GGTFDDYAMH,GISWLSGSIGYADSVK,VGVGGGYFDY,not detected,0 of 3
GFTFDDYAMH,GISDRSGSIGYADSVK,VGRGGGYFDY,3.5 µM,3 of 3
GFTFDDYAMH,WISWQFGSIGYADSVK,VGRGGGYFDY,210 µM,3 of 3
GFTFDDYAMH,GISWTSGSIGYADSVK,VGRGGGYIDY,64 µM,1 of 3
GFTFDDYAMI,GISWASGLIGYADSVK,VGRGGGYFDY,3.4 µM,1 of 3
SFTFPDYAMH,GISWQSGSIGYADSVK,VGRGGGYFDY,not detected,0 of 3
GFTFDDYAKH,GISWESGSIGYADVVK,VGRGGGYFDY,not detected,0 of 3
GFTFDDYAMH,GISWISGSIGGADSVK,VGRGGGYIDY,1.2 mM,1 of 3
GFTFDDYAMH,GISWWSGSIGYAPSVK,VGRGGGYFDD,35 µM,1 of 3
GFTFDDYAMH,GISWISGSFGYADSFK,VGRGGGYFDY,62 µM,1 of 3
GFTFDDYNMH,GISWPSGSIGYADSVK,VGRGGGYFDL,330 µM,1 of 3
GFTFDDYAMH,GISWLSGSLGYADSVK,VGRGGGYADY,2.4 µM,1 of 3
GFTFDDYAMH,GISWTAGSIGYADSVK,VGRGGGYFDY,not detected,0 of 3
GLTFDDYAMH,GISWVSGSIGYADSVK,VARGGGYFDY,not detected,0 of 3
GFTFDDYAMH,GISWWSGSIGCADSVK,VGRGGGYFDG,60 µM,1 of 3
GFTFDDYAMH,GISWGSGSIGYADSTK,VYRGGGYFDY,62 µM,2 of 3
GFTFDDYAMH,GISWYAGSIGYADSVK,NGRGGGYFDY,not detected,0 of 3
GFTFDDEAMH,GISWKSGSIGYADSVK,VGRGGGTFDY,460 µM,2 of 3
GFTFDDFAMH,GISWWIGSIGYADSVK,VGRGGGYFDY,not detected,0 of 3
PFTFDDYAMH,GISWHSGSIGYADSVK,VGRGGGYFDY,not detected,0 of 3
GFTFDDYAMH,GISWCSGSIGYADSVK,VGRGGGYFDY,7.3 µM,2 of 3
GFTFDDYTMH,GISWESGSQGYADSVK,VGRGGGYFDY,16 nM,3 of 3
GFTFDDYAMH,GISWFSGSKGYADDVK,VGRGGGYFDY,35 µM,1 of 3
GFTFDDYAMH,GISWCSGSIGYADSVK,VGRGGGYFIV,18 µM,2 of 3
GFTFDDYAMH,GISWFSGSIGYADSVK,VGRGGGYCDY,55 µM,1 of 3
GFTFDDYAMH,GISWISGSIGYADQVK,VGKGGGYFDY,not detected,0 of 3
GFTFDDYAMH,GISWYSGSIGYADSVK,VGRGGSYADY,490 µM,1 of 3
GFTEDDYAMH,GKSWASGSIGYADSVK,VGRGGGYFDY,19 µM,2 of 3
GFTFDDYARH,GISWRSESIGYADSVK,VGRGGGYFDY,1.4 µM,1 of 3
GFTFDDYAMH,GISWYSGSIGYADSVK,VGRGGGYFDY,120 µM,2 of 3
GFTFDDYAMH,GISWWSGSIGMADSVK,AGRGGGYFDY,22 µM,1 of 3
GFTFDDYAMH,GISSPSWSIGYADSVK,VGRGGGYFDY,740 µM,1 of 3
GFTKDDYAMH,GISWRSGSIGYADSVK,VGRGGGYKDY,not detected,0 of 3
VFTFDDYAHH,GISWESGSIGYADSVK,VGRGGGYFDY,250 µM,1 of 3
GFTFDDYAMH,GISWDSGSIGYADSVK,VGRRGGDFDY,16 µM,3 of 3
GFTFDDYAMH,GISWPSGSIEYADSVK,VGRGGGCFDY,31 µM,1 of 3
GFTFDDYAMI,GISWPSGSIGIADSVK,VGRGGGYFDY,28 µM,1 of 3
GFTFDDYAMH,GISQYSGSIRYADSVK,VGRGGGYFDY,29 µM,1 of 3
GFTFDDYAMR,GISWFSGSIPYADSVK,VGRGGGYFDY,not detected,0 of 3

For reference, 5 entries of the list once more:

CDR-H1,CDR-H2,CDR-H3,apparent Kd,detected
GFTFDDYAMH,GISWDSGSICYATSVK,VGRGGGYFDY,not detected,0 of 3
GFTFDDYAMH,GISWDSGSIGYADSVK,VGRRGGDFDY,16 µM,3 of 3
GFTEDDYAMH,GKSWASGSIGYADSVK,VGRGGGYFDY,19 µM,2 of 3
GFTFDDYAMH,GISWGSGSIGYADSTK,VYRGGGYFDY,62 µM,2 of 3
GFTFDDYAMH,GIDWFRGSIGYADSVK,VGRGGGYFDY,not detected,0 of 3